# scFv variants of Ab-95 (light chain) against a SARS-CoV-2 spike peptide

Source: Engelhart et al. 2022 (doi:10.1038/s41597-022-01779-4), MIT Lincoln Laboratory and A-Alpha Bio; data file from the FLAb repository.

Binding partner: SARS-CoV-2 spike HR2 peptide, sequence PDVDLGDISGINAS.

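Phage display of a naive human antibody library on the peptide gave the parent. The library (AAYL52) carries one to three amino acid substitutions per variant, with no insertions or deletions. AlphaSeq pools MATa yeast showing the antibodies with MATalpha yeast showing the peptide. Mating (16 h, 30 °C) was followed by selection of diploids and sequencing of their barcodes. The ratio of observed to expected reads was calibrated, replicate by replicate, on BCL2-family standards whose Kd was known from biolayer interferometry. Each pool was mated in three replicate cultures.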

Ab-95 is the parent antibody, in scFv form: VH, then the linker GGGGSGGGGSGGGGS, then VL. The heavy chain is unchanged in all variants.
VH: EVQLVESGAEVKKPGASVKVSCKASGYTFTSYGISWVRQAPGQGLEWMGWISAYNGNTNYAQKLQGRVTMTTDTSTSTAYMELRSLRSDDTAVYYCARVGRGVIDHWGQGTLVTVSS
VL: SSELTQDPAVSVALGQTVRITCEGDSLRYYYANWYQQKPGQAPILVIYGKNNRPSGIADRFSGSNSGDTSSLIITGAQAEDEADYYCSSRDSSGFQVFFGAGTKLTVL

Variants are written as CDR1, CDR2 and CDR3 of the light chain (limits as in the source). Parent: EGDSLRYYYAN, GKNNRPS, SSRDSSGFQVF. All variants listed here change A32 of the VL, counted from its first residue. The Kd shown is the geometric mean over detected replicates; a lower Kd is a better binder. Where no diploid with the target was found in any replicate, the entry reads "nd": below detection, most likely a poor binder, though not proof of it. As a blank, each scFv also met three strains without target: over library AAYL52, 28% of these pairings were detected, typically at 8.2 µM and seldom below 800 nM. For reference, the parent read 200 nM as the reference entry and 180 nM as a member of this library.

With EGDSWRYSYLN, GKNNRPS, SSRDSSGFQVF the result was 2.2 µM (3 of 3 replicates).
With EGDSLRYYYFN, GKNNRPC, SSRDSSDFQVF the result was 33 µM (1 of 3 replicates).
With EGDSLRYYYHN, GKNNRPS, SSRDSIGFQWF the result was 350 nM (3 of 3 replicates).
With EGDSLRYYYHN, GKNNRPS, SSRDSSGDQVF the result was 21 µM (3 of 3 replicates).
With EGDSLRYYYHN, GKNNRPC, SSRDNSGFQVF the result was 58 µM (1 of 3 replicates).
With EGDSLRYYYRN, GKNNRPS, LVRDSSGFQVF the result was nd (0 of 3 replicates).
With EGDSLRYYYNN, GNNNRPS, SSRDSSGFQVF the result was 230 nM (3 of 3 replicates).
With EGDSLRYYGFN, GKNNRPS, SSEDSSGFQVF the result was 15 µM (2 of 3 replicates).
With EGDSLRYYYVN, GKNDRPS, SSRDLSGFQVF the result was 1.1 µM (3 of 3 replicates).
With EGDSLRYYYPN, GKNNRTS, SSRDQSGFQVF the result was 47 nM (3 of 3 replicates).
With EYDSLRYIYIN, GKNNRPS, SSRDSSGFQVF the result was 800 nM (3 of 3 replicates).
With EGDSLSYYYWN, GKNTRPS, SSRDSSGFQVF the result was 87 nM (3 of 3 replicates).
With EGDSSRYYYKN, GKNNRTS, SSRDSSGFQVF the result was 4.5 µM (3 of 3 replicates).
With EGDSLRYYYYN, GKNNRPS, SSRDSSGFQVV the result was nd (0 of 3 replicates).
With EGDSLRYYYIP, GKNNRPS, SSRDSSGFQVT the result was 9.7 µM (2 of 3 replicates).
With EGDSLRYYYEN, GKNFRPS, SSIDSSGFQVF the result was 5.6 µM (1 of 3 replicates).
With EGDSLRYYYMN, GKNNRPS, SSRDSVGFQVF the result was 900 nM (2 of 3 replicates).
With EGYSLRYYYYN, GKNNRPS, SSRGSSGFQVF the result was 29 µM (2 of 3 replicates).
With EGDSLRYYYDN, GKNNRPS, SSRDSSGFQVF the result was 8.4 µM (1 of 3 replicates).
With EGDSLRYYYQN, GKENCPS, SSRDSSGFQVF the result was 4.0 µM (1 of 3 replicates).
With EGDSLRVYYPN, GGNNRPS, SSRDSSGFQVF the result was 140 nM (3 of 3 replicates).
With GGDSLRYYYSN, VKNNRPS, SSRDSSGFQVF the result was nd (0 of 3 replicates).
With EGDSLRYYYSN, GKNNRPS, SSRESSGCQVF the result was 260 µM (1 of 3 replicates).
With EGDSLRYYYNN, GKNNRPS, SSRDKSGFQVF the result was 240 nM (3 of 3 replicates).
With EGDSLRYYYYN, GKNNRPS, SSRDSSGFQVF the result was nd (0 of 3 replicates).
With EGDSIRYYYKN, GKNNRPS, SSRDSSGFWVF the result was 3.5 µM (1 of 3 replicates).
With EWDSLRYYYNN, PKNNRPS, SSRDSSGFQVF the result was 6.4 µM (1 of 3 replicates).
With EGDSLRYYYKN, GKNNRPS, SQRDSSGFQVM the result was 20 µM (2 of 3 replicates).
With EGDSLRYYYCN, GKNNRPS, MSRDSSGFQVF the result was 44 nM (3 of 3 replicates).
With EGDSLRYYYYN, GKTNRSS, SSRDSSGFQVF the result was 2.0 µM (2 of 3 replicates).
With EGDSLRYYYYN, GKRNRPS, SSRDSSGFQVF the result was 10 µM (1 of 3 replicates).
With EGDSLRYYNSN, SKNNRPS, SSRDSSGFQVF the result was 1.7 µM (3 of 3 replicates).
With EFDSDRYYYEN, GKNNRPS, SSRDSSGFQVF the result was 18 µM (1 of 3 replicates).
With EPDSLRYYYNN, GKNNRPS, SERDSSGFQVF the result was 350 µM (1 of 3 replicates).

The closing 3 entries, repeated:

| CDR-L1 | CDR-L2 | CDR-L3 | Kd | detected |
|---|---|---|---|---|
| EGDSLRYYNSN | SKNNRPS | SSRDSSGFQVF | 1.7 µM | 3/3 |
| EFDSDRYYYEN | GKNNRPS | SSRDSSGFQVF | 18 µM | 1/3 |
| EPDSLRYYYNN | GKNNRPS | SERDSSGFQVF | 350 µM | 1/3 |